# Antibody variant affinities, Ab-91 heavy chain, assay 2

Values reported by Engelhart et al. 2022, doi:10.1038/s41597-022-01779-4 (FLAb copy).

Binding partner: SARS-CoV-2 spike HR2 peptide, sequence PDVDLGDISGINAS.

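The library (AAYL51) carries one to three amino acid substitutions per variant, with no insertions or deletions. In AlphaSeq, yeast of one mating type display the scFv and yeast of the other type display the target. Mating (16 h, 30 °C) was followed by selection of diploids and sequencing of their barcodes. Each replicate has its own calibration line, from reference interactions of the BCL2 family. Mating was done three times.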

Ab-91 is the parent antibody, in scFv form: VL, then three GGGGS repeats, then VH. The light chain is unchanged in all variants.
VL: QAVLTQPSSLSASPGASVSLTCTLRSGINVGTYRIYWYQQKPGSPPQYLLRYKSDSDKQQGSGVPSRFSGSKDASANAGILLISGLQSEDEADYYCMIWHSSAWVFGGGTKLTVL
VH: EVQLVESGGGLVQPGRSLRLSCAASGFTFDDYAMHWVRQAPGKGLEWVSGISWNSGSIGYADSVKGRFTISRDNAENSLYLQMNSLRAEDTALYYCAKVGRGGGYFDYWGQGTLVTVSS

Substitutions are numbered in sequence along the VH above, starting at 1 (not Kabat).
All variants listed here change G26 of the VH, counted from its first residue.
Scale: log10 of Kd in nM, estimated from mating counts; low values are strong binders.
Averages over replicates are reported, and they cover detected replicates only.
An entry "not detected" has no value in the source: the pair was not observed among the diploids in any replicate. This suggests poor binding but is not conclusive.
Nonspecific signal, from three strains lacking the peptide, appeared in 21% of pairings of library AAYL51, centred on 4.54 (5% of these signals below 3.26); values are not corrected for it. Also given: how often the same scFv was detected with the empty control strains.

changes,"mean, log10 nM",detected,empty controls
G26Q/G100W/G104K,4.94,2/3,1/9
G26L/D30I/D31N,4.96,1/3,5/9
G26N/I58R/F106G,not detected,0/3,0/9
G26K/S55G/D107G,5.21,2/3,5/9
G26V/S52Q/Y60N,5.05,1/3,1/9
G26S/A61V/G104A,3.27,1/3,2/9
G26K/F27I/R101T,5.41,3/3,2/9
G26P/G56W/A61P,not detected,0/3,1/9
G26C/F27L/S52T,4.06,1/3,1/9
G26T/D62T/F106Y,not detected,0/3,0/9
G26R/T28N,4.71,1/3,2/9
G26T/Y32L/Y105A,4.92,1/3,3/9
G26I/W53L/F106A,4.73,2/3,7/9
G26S/F27C/N54D,not detected,0/3,0/9
G26N/M34W/K65H,4.06,1/3,0/9
G26Y/G103W,not detected,0/3,0/9
G26D/R101E,5.05,1/3,4/9
G26A/Y32M/Y60C,5.06,2/3,7/9
G26W/Y32N,not detected,0/3,1/9
G26L/S55H/G59Q,5.96,1/3,2/9
G26H/D31C/V64Q,not detected,0/3,0/9
G26L/S52W/W53G,not detected,0/3,0/9
G26P/S57I/K65A,not detected,0/3,0/9
G26K/D30A/Y60H,not detected,0/3,3/9
G26H/F29P/G102Q,4.18,1/3,1/9
G26D/I58S,3.27,1/3,2/9
G26Y/M34K/N54Q,5.68,3/3,2/9
G26K/Y32H/V64K,5.17,1/3,1/9
G26I/M34G/G100S,5.26,3/3,6/9
G26R/G103H,not detected,0/3,1/9
G26L,not detected,0/3,4/9
G26K/N54L/Y105R,not detected,0/3,0/9
G26Y/G100A/D107E,4.32,1/3,0/9
G26W/S55L/K65G,not detected,0/3,1/9
G26V/G56W/R101S,5.08,2/3,7/9
G26M/Y60W/V64H,not detected,0/3,0/9
G26D/Y60N,4.53,2/3,0/9
G26I/N54S/K65L,4.81,1/3,1/9
G26L/V64N/V99C,not detected,0/3,3/9
G26N/G102P,not detected,0/3,0/9
G26W/H35F/W53R,not detected,0/3,1/9
G26N/Y105P,not detected,0/3,0/9
G26H/F27D/D30S,4.40,3/3,3/9
G26Y/D31A/A61T,not detected,0/3,0/9
G26Q/Y32E/Y105S,not detected,0/3,1/9
G26Y/M34G/R101A,4.57,2/3,1/9
G26Y/D30L/V64L,not detected,0/3,2/9
G26W/R101H/G104P,2.77,1/3,1/9
G26I/M34G/G56Q,not detected,0/3,0/9
G26L/V99N/D107I,4.93,3/3,7/9
G26V/G100S/Y105S,not detected,0/3,0/9
G26L/N54R/I58T,not detected,0/3,0/9
G26T/I51E/V99S,5.04,1/3,0/9
G26L/S57T/D107A,3.25,1/3,2/9
G26Y/A33R/Y105R,not detected,0/3,1/9
G26H/G59K,4.71,3/3,4/9
G26R/N54G/D62E,not detected,0/3,1/9
G26D/F27L/I51N,not detected,0/3,0/9
G26V/S52E/Y108T,not detected,0/3,0/9
G26Q/S52G/G56W,not detected,0/3,3/9
G26D/I58V/A61I,5.07,1/3,0/9
G26Y/S52I/D62T,not detected,0/3,1/9
G26N/A61D/K65E,4.35,3/3,2/9
G26T/G56R/S63R,not detected,0/3,0/9
G26E/W53Y/V64C,not detected,0/3,0/9
G26F/S57E,2.97,3/3,0/9
G26R/H35G/Y108C,5.70,1/3,2/9
G26N/G56D/D62P,2.99,3/3,2/9
G26S/G50C/G56K,not detected,0/3,0/9
G26W/I58Q/G59L,4.20,1/3,2/9
G26R/F29Y/G56K,not detected,0/3,0/9
G26K/F29T/Y105D,not detected,0/3,2/9
G26P/N54S,5.97,1/3,3/9

Excerpt, the first 4 entries:

changes	mean, log10 nM	detected	empty controls
G26Q/G100W/G104K	4.94	2/3	1/9
G26L/D30I/D31N	4.96	1/3	5/9
G26N/I58R/F106G	not detected	0/3	0/9
G26K/S55G/D107G	5.21	2/3	5/9